Bioassay records from PubChem BioAssay.
A selection: hits, their analogues and other compounds. The true share with any hit is near 2.8%.
esBAF inh: blocks esBAF chromatin remodeling in mouse ES cells. Bmi1-luciferase knock-in reporter, 24 h; 100% = twice the neutral-well signal. reporter increase, % at 12.5 µM. 350,000 compounds, 2% hits; in the data active = activation above about 40%; inconclusive = no clear call, values can overlap the other calls;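 also: a rise in the Bmi1 reporter signal indicates esBAF inhibition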
PglD inh: PglD (C. jejuni) enzyme inhibition. purified PglD enzyme, DTNB colorimetric CoA detection. inhibition, % at 12.5 µM. 360,000 compounds, 0.098% hits. AID 602405; in the data active = inhibition above about 16%, passing the limit was not always enough; inconclusive = no clear call, values can overlap the other calls
C2C12 statin: suppressors of simvastatin-induced myotoxicity in C2C12 myotubes; ATP luminescence, 48 h; scaled: DMSO 0, geranylgeraniol control 100; 330,000 compounds, 0.78% hits; rescue of ATP level, % at 7.49 µM;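 active = mean ATP rescue above about 67%, or every replicate alone reaching that limit, limit read from the data, passing the limit was not always enough; inconclusive = no clear call, values can overlap the other calls; inactive = mean under the limit and some replicate under it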;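 also: myotubes were challenged with 10 µM simvastatin during compound exposure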
Yeast UUG start: alters start codon recognition fidelity in yeast. S. cerevisiae UUG-firefly luciferase reporter, luminescence/redox ratio. 350,000 tested, 0.13% active. activity score, % at 18.7 µM. AID 602363;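 active means replicate mean at a twofold rise or more, about +100% in these data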;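 further: firefly luciferase made from a UUG start codon reports start codon fidelity; reporter light over untreated wells divided by growth signal over untreated wells; some hits fall short of that in this replicate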
E-sel inducer: induces E-selectin expression in human endothelial cells. activation, % at 7.58 µM. 260,000 compounds, 0.37% hits. HUVEC E-selectin immunofluorescence imaging; normalized: neutral wells 0, TNF-alpha wells 100. P16581;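 active = mean E-selectin-positive cell signal at least 10% of the positive control, reached in at least 60% of replicates, without over 20% cell loss; inconclusive = no rule given, readout overlaps actives, possibly toxicity-flagged; inactive = the rest, including those meeting only one limit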
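Test system: HUVEC | Signal: Immunofluorescence imaging | Read-out: Percent E-selectin-positive cells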
PGC1a acetyl inh: modulators of PGC1a acetylation; inhibition, % at 15.6 µM; 350,000 compounds, 0.17% hits; U2OS PGC1a acetylation, AlphaScreen anti-acetyl-lysine; with virally co-expressed GCN5 acetyltransferase; AID 651687;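 active = every replicate shows inhibition of at least 40%; inconclusive = mean inhibition at least 40% but some replicate below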
Each line names hits and unclear results; the compound was inactive in the other large screens.

CO[C@H]1CN(C)C(=O)c2cc(NC(=O)NC(C)C)ccc2OC[C@@H](C)N(Cc2ccc(-c3ccccn3)cc2)C[C@H]1C	none
Cc1ccc(C(=O)N/N=C\c2ccccc2[N+](=O)[O-])cn1	esBAF inh 53 (no result: PglD inh, Yeast UUG start, E-sel inducer)
CCOc1ccccc1/C=N/Nc1ccccc1[N+](=O)[O-]	esBAF inh 54 (no result: E-sel inducer)
Oc1ccccc1/C=N/Nc1nccnc1Cl	none (no result: E-sel inducer)
Cc1ccc(C(=O)N/N=C\C=C\c2ccccc2[N+](=O)[O-])cn1	none (no result: esBAF inh, PglD inh, C2C12 statin, Yeast UUG start, E-sel inducer)
O=[N+]([O-])c1ccccc1/C=N/Nc1nccnc1Cl	esBAF inh inconclusive, C2C12 statin 112 (no result: E-sel inducer)
COc1cc(SC)ccc1C(=O)Nc1cccc(C)n1	esBAF inh 45 (no result: E-sel inducer)
COc1cc(SC)ccc1C(=O)Nc1ccc(Br)cn1	none
COc1cc(SC)ccc1C(=O)Nc1ccon1	esBAF inh 51 (no result: E-sel inducer)
COc1cc(SC)ccc1C(=O)Nc1ccccn1	none (no result: esBAF inh, C2C12 statin, E-sel inducer)
CO[C@H]1CN(C)C(=O)c2cc(NS(=O)(=O)CC(F)(F)F)ccc2OC[C@@H](C)N(CC2CCCCC2)C[C@H]1C	none (no result: Yeast UUG start)
COc1ccc(-c2nc(CS(=O)(=O)CC(=O)Nc3ccc(Cl)cc3)c(C)o2)cc1	esBAF inh 66
CC(OC(=O)Nc1cccc(Cl)c1)C(=O)OC1CCCCC1 (stereo not drawn)	esBAF inh 54 (no result: E-sel inducer)
O=C(Nc1ccccc1Cl)OC1CCCCC1	esBAF inh 56 (no result: E-sel inducer)
CC(OC(=O)C1CCCCC1)C(=O)Nc1cccc(Cl)c1 (stereo not drawn)	none
Cc1cccn2cc(-c3c[nH]c4ccccc34)nc12	esBAF inh 81 (no result: PGC1a acetyl inh)
CN(C)c1ccc(C2C3CCCc4ccccc4C3=NN2C)cc1 (stereo not drawn)	esBAF inh 47 (no result: PglD inh, Yeast UUG start, E-sel inducer)
CC(=O)N1N=C2c3ccccc3CCC2C1c1ccc(F)cc1 (stereo not drawn)	none (no result: esBAF inh, C2C12 statin, E-sel inducer)
CC1(C)CC(=O)c2c(O)cc(OCc3ccc(Br)cc3)cc2O1	esBAF inh 67 (no result: E-sel inducer)
O=C(NCc1ccc2c(c1)OCO2)[C@@H]1[C@@H](CO)[C@@H]2Cn3c(cccc3=O)[C@H]1N2Cc1ccncc1	none (no result: Yeast UUG start, PGC1a acetyl inh)
C=CCn1c2ccccc2c(=O)c2cc(C#Cc3ccccn3)ccc21	esBAF inh 70
COc1cc2sc3ccc(C#Cc4ccccn4)cc3c(=O)c2cc1OC	none
CN1[C@@H]2Cn3c(ccc(C4=CCCC4)c3=O)[C@H]1[C@@H](C(=O)N1CCOCC1)[C@@H]2CO	none (no result: Yeast UUG start, PGC1a acetyl inh)
Cc1ccc(Nc2ncnc3ccccc23)cc1	esBAF inh 46 (no result: E-sel inducer)
Cc1ccc(/C(=N/Nc2ncnc3ccccc23)C(=O)O)cc1	esBAF inh 52, E-sel inducer 51
COC(=O)C(=O)C/C(=N/Nc1ncnc2ccccc12)c1ccc(Cl)cc1	none (no result: PGC1a acetyl inh)
O=C(Nc1ccccc1O)c1c(O)c2c([nH]c1=O)CCCC2	esBAF inh 85 (no result: E-sel inducer)
CCOC(=O)c1nn(-c2cccc(Cl)c2)c(C)c1C(C)=O	C2C12 statin 123 (no result: E-sel inducer)
CCOC(=O)c1nn(-c2cccc(OC)c2)c(-c2ccccc2)c1C(=O)c1ccccc1	none (no result: E-sel inducer, PGC1a acetyl inh)
COc1ccc(C(=O)CNc2cccc(F)c2)cc1	esBAF inh 63 (no result: PGC1a acetyl inh)
COc1ccc(C(=O)CC(=O)C(=O)Nc2cccc(F)c2)cc1	none
COc1ccc(C(=O)CNc2ccccc2C#N)cc1	esBAF inh 50
CC(=O)c1ccc(OCc2cc(C(=O)N3CC4C[C@@H]5CC3C[C@H](C4)C5)no2)cc1	none (no result: esBAF inh, C2C12 statin, E-sel inducer)
O=C(c1cc(COc2ccc(F)cc2F)on1)N1C[C@H]2CC[C@H]1C2	esBAF inh 46
COc1ccc(OCc2cc(C(=O)N3C[C@H]4CC[C@H]3C4)no2)c(Cl)c1	esBAF inh 61
O=C(c1cc(COc2c(F)cccc2F)on1)N1C[C@H]2CC[C@H]1C2	esBAF inh 92
O=C(c1cc(COc2ccc(F)cc2F)on1)N1CC2C[C@@H]3CC1C[C@H](C2)C3	esBAF inh 55 (no result: E-sel inducer)
COc1ccc(OCc2cc(C(=O)N3CCCN(C(C)=O)CC3)no2)c(Cl)c1	none
O=C(c1ccncc1)N1CC[C@@H]2[C@H](CO)Nc3ccc(Br)cc3[C@@H]21	none
C[C@@H]1CN([C@@H](C)CO)C(=O)c2cccc(NC(=O)Nc3ccc(F)cc3)c2O[C@H]1CN(C)C(=O)Nc1ccc2c(c1)OCO2	none (no result: C2C12 statin)
CN(C)CC#Cc1ccc([C@H]2[C@H]3CN(C(=O)C4CCCC4)CCCCN3[C@H]2CO)cc1	none (no result: esBAF inh, C2C12 statin, E-sel inducer)
